Laboratory results reported in patent publication US20020040034A1, “Methods for treating allergic asthma using descarboethoxyloratadine” (priority 1997, published 2002).

By UniProt entry, the sequences of proteins in these tests, tags left out.
UniProt P31389, whole entry: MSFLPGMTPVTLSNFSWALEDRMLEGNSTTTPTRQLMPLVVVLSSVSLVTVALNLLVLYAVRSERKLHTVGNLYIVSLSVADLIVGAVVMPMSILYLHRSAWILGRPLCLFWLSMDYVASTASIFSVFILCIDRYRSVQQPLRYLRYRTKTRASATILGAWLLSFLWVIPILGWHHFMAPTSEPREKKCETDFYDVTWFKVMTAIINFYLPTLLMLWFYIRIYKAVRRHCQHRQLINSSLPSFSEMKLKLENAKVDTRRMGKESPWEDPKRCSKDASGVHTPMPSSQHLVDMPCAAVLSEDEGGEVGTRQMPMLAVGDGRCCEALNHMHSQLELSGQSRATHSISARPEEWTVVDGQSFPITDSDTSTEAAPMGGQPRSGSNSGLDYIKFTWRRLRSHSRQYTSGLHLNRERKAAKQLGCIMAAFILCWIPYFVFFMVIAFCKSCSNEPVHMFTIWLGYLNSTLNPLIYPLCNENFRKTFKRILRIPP

Target: histamine H-1 receptors (Cavia porcellus, UniProt P31389)
Settings: Hill coefficient of the binding curve

COc1ccc(CN(CCN(C)C)c2ccccn2)cc1 [Pyrilamine]
Inhibition of Pyrilamine Binding at H-1 Receptor (nH): (0.98)
